This is an account of results in PubChem BioAssay AID1527 (The Scripps Research Institute Molecular Screening Center, 2009).

The list shows a part of the results, in another mix than the full data. Activity calls are given as the source filed them.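 How the source made its calls: active means inhibition above the mean of all tested compounds plus 3 SD, cutoff set per screening run (cut at about 7.5% in these data); inactive means the rest.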

Usually inhibition stands for the drop in the measured response relative to a control, in per cent.

The test deals with VIM-2 metallo-beta-lactamase (Pseudomonas aeruginosa). Description: inhibition of VIM-2 nitrocefin hydrolysis – biochemical, epi-absorbance readout, Pseudomonas aeruginosa enzyme, primary screen (AID 1527).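 Further: red hydrolysis product quenches plate fluorescence so inhibitors raise well fluorescence; 0% = enzyme with DMSO and 100% = DMSO without enzyme.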 The conditions noted are these: purified VIM-2, nitrocefin hydrolysis, epi-absorbance fluorescence; at 5.6 µM; stronger effect = higher value.
For the compound `CCOC(=O)c1ccc(NP(C)(=O)Oc2ccc(OC)cc2)cc1` (centres undefined), the inhibition is inactive: -0.29%. With `CCOP(C)(=S)SCC(=O)NC(C)C(=O)O` (centres undefined), the inhibition was inactive: -1.4%. Turning to `CP(=O)(Nc1ccccn1)Oc1ccc(Cl)cc1` (centres undefined), the inhibition is inactive: -2.23%. Turning to `CP(=O)(Oc1ccccc1)OC(c1ccccc1)C(F)(F)F` (centres undefined), the inhibition was inactive: -1.85%. To `Cc1cccc(C)c1OP(C)(=O)Nc1ccc(SC(F)(F)F)cc1` (centres undefined) belongs inactive: -1.22%; to `CP(=O)(Nc1ccc(SC(F)(F)F)cc1)Oc1ccc(Cl)cc1` (centres undefined), inactive: -4.61%; to `Cc1cc(C)cc(OP(C)(=O)Nc2ccc(SC(F)(F)F)cc2)c1` (centres undefined), inactive: -2.26%.

With `CCc1ccc(OP(C)(=O)N2CCN(c3ccc([N+](=O)[O-])cc3)CC2)cc1` (centres undefined), the inhibition was inactive: -2.37%. The result for `CP(=O)(NC(=O)Nc1ccccc1)Oc1ccccc1` (centres undefined) reads inactive: -0.41%; that for `CP(=S)(Nn1cnnc1)Oc1ccccc1` (centres undefined), inactive: -3.41%. The result for `CP(=O)(Nc1ccccc1Br)Oc1ccccc1` (centres undefined) reads inactive: -2.77%; that for `COc1ccccc1OP(C)(=O)Nc1ccccc1` (centres undefined), inactive: -2.55%.

As for `Cc1ccc(NP(C)(=O)Oc2ccccc2)c(C)c1` (centres undefined), the inhibition is inactive: -3.28%. To `COc1ccccc1OP(C)(=O)Nc1ccc(C)cc1` (centres undefined) belongs inactive: -1.01%; to `CCOC(=O)c1ccc(NP(C)(=O)Oc2ccccc2)cc1` (centres undefined), inactive: -1.49%; to `Cc1cc(C)cc(OP(C)(N)=O)c1` (centres undefined), inactive: -1.99%. For the compound `COc1ccc(OP(C)(=O)Nc2cccc(F)c2)cc1` (centres undefined), the inhibition is inactive: -5.11%.

As for `COc1ccccc1OP(C)(=O)Nc1cc(Cl)ccc1C` (centres undefined), the inhibition was inactive: -0.33%. To `O=[N+]([O-])c1ccc2c(c1)C=Nc1ccccc1O2` belongs inactive: 0.68%; to `Cc1cccc(C)c1OP(C)(N)=O` (centres undefined), inactive: 0.42%. Consider `CC(C)(C)c1ccc(OP(C)(=O)Nc2ccc(SC(F)(F)F)cc2)cc1` (centres undefined), for which the inhibition is inactive: -1.85%. The result for `CCN(CC)CCCOC(=O)C(O)(c1ccccc1)c1ccccc1` reads inactive: -1.91%. Take `Cc1ccc(C)c(NP(C)(=O)Oc2ccccc2)c1` (centres undefined): the inhibition is inactive: -3.45%. For the compound `CP(=O)(Nc1cccc(Br)c1)Oc1ccccc1` (centres undefined), the inhibition was inactive: -4.5%.

Regarding `Cc1cc(C)cc(OP(C)(=O)Nc2ccccn2)c1` (centres undefined), the inhibition was inactive: -0.44%. To `COc1ccccc1OP(C)(=O)Nc1cccc(Br)c1` (centres undefined) belongs inactive: -2.29%; to `CCOC(=O)c1ccc(NP(C)(=O)Oc2cc(C)cc(C)c2)cc1` (centres undefined), inactive: -0.09%; to `Cc1cc(C)cc(OP(C)(=O)Nc2ccc(C)cc2C)c1` (centres undefined), inactive: -4.11%. Consider `CC1=NCCc2c1[nH]c1ccccc21.O=[N+]([O-])c1cc([N+](=O)[O-])c(O)c([N+](=O)[O-])c1`, for which the inhibition is inactive: -1.11%. Regarding `O=C(O)c1cccc(Nc2c([N+](=O)[O-])cc([N+](=O)[O-])cc2[N+](=O)[O-])c1`, the inhibition was inactive: 4.51%. To `COc1ccccc1OP(C)(=O)Nc1c(C)cccc1C` (centres undefined) belongs inactive: -1.87%; to `CN1CCCCC1COC(=O)C1(O)c2ccccc2CCc2ccccc21` (centres undefined), inactive: -1.57%; to `CP(=O)(Nc1ccc(SC(F)(F)F)cc1)Oc1ccccc1` (centres undefined), inactive: -1.5%. Turning to `CCCOc1ccc(NP(C)(=O)Oc2ccc(Cl)cc2)cc1` (centres undefined), the inhibition is inactive: -0.17%. To `CCOC(=O)C(CC)C1=NC(C)(C)Cc2ccccc21.O=[N+]([O-])c1cc([N+](=O)[O-])c(O)c([N+](=O)[O-])c1` (centres undefined) belongs inactive: -2.4%.

For `O=[N+]([O-])c1cc([N+](=O)[O-])c(Nc2nnnn2CCO)c([N+](=O)[O-])c1`, the inhibition was inactive: -1.91%.

Turning to `Cc1nc2ccc3ccccc3c2s1.O=[N+]([O-])c1cc([N+](=O)[O-])c(O)c([N+](=O)[O-])c1`, the inhibition is inactive: -0.06%. Consider `O=[N+]([O-])c1cc([N+](=O)[O-])c(-n2nnc3ccccc32)c([N+](=O)[O-])c1`, for which the inhibition is inactive: -2.44%. As for `CP(=O)(Nc1ccc2c(c1)OCCO2)Oc1ccccc1` (centres undefined), the inhibition was inactive: -0.89%. To `Cc1ccccc1NP(C)(=O)Nc1ccccc1C` belongs inactive: -3.36%; to `CP(=O)(Nc1ccc(SC(F)(F)F)cc1)Oc1ccc(F)cc1` (centres undefined), inactive: -0.14%. With `CCOP(C)(=S)SCC(=O)NC(C)(CC)C(=O)O` (centres undefined), the inhibition was inactive: -3.46%. Consider `O=[N+]([O-])c1ccc(OP2(=O)COCCO2)cc1` (centres undefined), for which the inhibition was inactive: -2.8%. As for `Cc1cc(-c2cccc3ccccc23)c(C)cn1.O=[N+]([O-])c1cc([N+](=O)[O-])c(O)c([N+](=O)[O-])c1`, the inhibition is inactive: -2.22%.

Consider `O=[N+]([O-])c1cc([N+](=O)[O-])c(NCC2CCS(=O)(=O)C2)c([N+](=O)[O-])c1` (centres undefined), for which the inhibition was inactive: -1.79%.

In the case of `COc1ccc(OP(C)(=O)Nc2cccc(Br)c2)cc1` (centres undefined), the inhibition was inactive: -0.73%. The result for `CN(C)CCOC(=O)C(O)(c1ccccc1)C1CCCCC1` (centres undefined) reads inactive: -3.08%.

In the case of `COc1ccc(NP(C)(=O)Oc2ccccc2OC)cc1` (centres undefined), the inhibition was inactive: -2.27%. The result for `CCN(CC)CCCOC(=O)C(O)(c1ccccc1)C1CCCCC1` (centres undefined) reads inactive: -3.43%; that for `CP(=O)(Nc1ccccc1)Oc1ccc(F)cc1` (centres undefined), inactive: 0.44%; that for `CCCCCOc1ccc(NP(C)(=O)Oc2ccc(Cl)cc2Cl)cc1` (centres undefined), inactive: 0.57%. Take `O=[N+]([O-])c1cc([N+](=O)[O-])c(OC2CCCCC2O)c([N+](=O)[O-])c1` (centres undefined): the inhibition was inactive: -2.96%.

With `CCOC(=O)c1ccc(NP(C)(=O)Oc2ccc(F)cc2)cc1` (centres undefined), the inhibition was inactive: -4.29%.

`COc1ccc(OP(C)(=O)Nc2ccc(SC(F)(F)F)cc2)cc1` (centres undefined): the inhibition is inactive: 0.3%.

For `O=C(OC1CN2CCC1CC2)c1ccc([N+](=O)[O-])cc1` (centres undefined), the inhibition is inactive: -2.45%. On to `O=C(OCCN1CCN(CCOCc2ccccc2)CC1)C(O)(c1ccccc1)c1ccccc1`, for which the inhibition was inactive: -0.05%. Turning to `CP(=O)(Nc1ccccc1F)Oc1ccccc1` (centres undefined), the inhibition was inactive: -0.6%.

In the case of `CC(C)c1ccc(OP(C)(=O)Nc2ccc(SC(F)(F)F)cc2)cc1` (centres undefined), the inhibition is inactive: -0.42%. As to `O=[N+]([O-])c1cc([N+](=O)[O-])c(Nc2ccccn2)c([N+](=O)[O-])c1`, the inhibition is inactive: -1.04%. For `Cc1c(NP(C)(=O)Oc2ccc(C(C)C)cc2)c(=O)n(-c2ccccc2)n1C` (centres undefined), the inhibition is inactive: -0.6%. With `COc1ccccc1OP(C)(=O)Nc1ccc(C)cc1C` (centres undefined), the inhibition is inactive: -0.69%.

`CP(=O)(Nc1ccccn1)Oc1ccccc1` (centres undefined): the inhibition was inactive: -2.21%. The result for `CCc1ccc(OP(C)(=O)O)cc1` reads inactive: -2.34%. The result for `COc1ccccc1OP(C)(=O)Nc1ccc(Br)cc1` (centres undefined) reads inactive: -2.46%; that for `COc1ccc(OP(C)(=O)Nc2ccccn2)cc1` (centres undefined), inactive: -3.93%; that for `CN(C)CCOC(=O)C(O)(c1ccccc1)C1CCCC1` (centres undefined), inactive: -0.66%. To `Cc1nc2ccc3ccccc3c2o1.O=[N+]([O-])c1cc([N+](=O)[O-])c(O)c([N+](=O)[O-])c1` belongs inactive: 0.76%; to `CP(=O)(OCCOc1ccccc1)OCCOc1ccccc1`, inactive: -1.73%; to `CP(=O)(Nc1ccc(Cl)cc1Cl)Oc1ccccc1` (centres undefined), inactive: -4.06%. Consider `Cc1cc(C)cc(OP(C)(=O)Nc2cccc(C(F)(F)F)c2)c1` (centres undefined), for which the inhibition was inactive: -5.97%. Take `COc1ccccc1OP(C)(=O)Nc1ccc(C)c(C)c1` (centres undefined): the inhibition is inactive: 0.03%. Turning to `COc1ccc(OP(C)(=O)Nc2ccccc2Br)cc1` (centres undefined), the inhibition is inactive: -1.12%. In the case of `CCOC(=O)c1ccc(NP(C)(=O)Oc2ccc(Cl)cc2)cc1` (centres undefined), the inhibition was inactive: 0.62%. For the compound `CP(=O)(OC12CC3CC(CC(C3)C1)C2)OC12CC3CC(CC(C3)C1)C2`, the inhibition was inactive: -2%.

With `CC(C)(C)c1ccc(OP(C)(=O)O)cc1`, the inhibition is inactive: -3.06%. For the compound `COc1ccccc1OP(C)(=O)Nc1ccccc1Br` (centres undefined), the inhibition is inactive: 2.59%. Regarding `CP(=O)(Nc1ccc(Cl)cc1)Oc1ccc(F)cc1` (centres undefined), the inhibition was inactive: -1.29%. To `CN(C)C(=O)c1c([N+](=O)[O-])cc([N+](=O)[O-])cc1[N+](=O)[O-]` belongs inactive: -4.49%; to `COc1ccc(OP(C)(=O)Nc2ccc(Br)cc2)cc1` (centres undefined), inactive: -2.23%; to `CCN(CC)CC(O)COC(=O)C(O)(c1ccccc1)C1CCCCC1` (centres undefined), inactive: -0.85%.

For `O=C(OCCCN1CCCC1)C(O)(c1ccccc1)C1CCCCC1` (centres undefined), the inhibition was inactive: -0.47%.

Regarding `COc1ccccc1OP(C)(=O)Nc1c(C)n(C)n(-c2ccccc2)c1=O` (centres undefined), the inhibition is inactive: -0.56%. To `CCc1ccc(OP(C)(=O)Nc2cccnc2)cc1` (centres undefined) belongs inactive: 1.2%. In the case of `CP(=O)(Oc1ccccc1)N1CCOC1=O` (centres undefined), the inhibition is inactive: -0.91%.
